# Reference: patent EP4840470A1, “ANTIBODY-DRUG CONJUGATE AND USE THEREOF” (dated 2026)
# Legend:
# [1] = test system: KRAS G12D mutant AGS human gastric adenocarcinoma cells; test: Proliferation of KRAS G12D mutant AGS cells, CTG assay, 3 days (Activity Example 1)
# Description: AGS cells (adherent) (Nanjing Kebai Biotechnology Co., Ltd., Cat# CBP60476) were cultured at 37 °C, 5% CO2, 95% humidity (3000/well, RPMI-1640 + 10% FBS (GIBCO, Cat#10099-141)).
# Cells in the logarithmic growth phase were harvested and counted using a platelet counter. Cell viability was assessed by trypan blue exclusion, ensuring >90% viability. The cell concentration was adjusted; 90 µL of cell suspension was added to each well of a 96-well plate (Corning®, Cat# 3603). The cells in the 96-well plate were cultured at 37 °C, 5% CO2 (Thermo Scientific, Model 3100 Series).
# Drug dilution and addition: a) Single-point inhibition rate assay: 10x drug solutions were prepared, and 10 µL drug solution was added each well of 96-well plate inoculated with cells to achieve a working concentration of 1 µM, with three replicate wells per drug concentration; b) Preparation of drug for IC50 assay: 10x drug solutions were prepared, and 10 µL drug solution was added each well of 96-well plate inoculated with cells to achieve a top working concentration of 10 µM with 3.16-fold serial dilution (9 concentrations), three replicate wells per drug concentration. The cells in the drug-treated 96-well plate were cultured at 37 °C under 5% CO2 for 3 days, followed by CTG assay (CellTiter-Glo® Luminescent Cell Viability Assay, Promega, Cat# G7572).
# CTG reagent was thawed, and cell plates were equilibrated to room temperature for 30 minutes. An equal volume of CTG solution was added to each well, and the plates were shaken on an orbital shaker for 5 minutes to lyse the cells. The plates were placed at room temperature for 20 minutes to stabilize the luminescent signal, and luminescence was read (SpectraMax Multi-Mode Microplate Reader, MD, 2104-0010A). Data were analyzed using GraphPad Prism 7.0 software, and dose-response curves were fitted by nonlinear S-curve regression to calculate IC50 values. [formula]
# [2] = test system: HPAC cells (carrying KRas G12D mutant protein); test: Human pancreatic cancer HPAC subcutaneous xenograft efficacy study (Activity Example 3); conditions: 50 mpk, PO, BID × 21, Day 20; vehicle control 771
# Description: 6-8 week old female NOD/SCID mice (Jiangsu Jicui Yaokang Biotechnology Co., Ltd.) were subcutaneously inoculated on the right posterior back with 1×10^7 HPAC cells (carrying KRas G12D mutant protein, ATCC) in 0.1 mL volume. When tumors grew to an average volume of 150 mm^3, mice were randomized into groups based on tumor size and mouse body weight. The day of dosing was considered Day 0. Test compounds were administered once daily via tail vein injection or oral gavage, 5 mice per group, at a dose of 50 mg/kg. The control group was administered the same volume of vehicle control via tail vein injection or oral gavage.
# Body weight and tumor size were measured twice weekly during the experiment. The formula for tumor volume was calculated as: Tumor volume (mm^3) = 0.5 × (tumor long diameter × tumor short diameter^2). Mean tumor growth inhibition TGI% = [(mean tumor volume in control group - mean initial tumor volume in control group) - (mean tumor volume in treatment group - mean initial tumor volume in treatment group)] / (mean tumor volume in control group - mean initial tumor volume in control group).
# A375 (WT) = test: Proliferation of KRAS mutant cells, drug P compounds (Activity Example 6)
# Description: (§1) A sterile 1% methylcellulose 3D culture medium was prepared in advance. Cells in the logarithmic growth phase were harvested, and cell counting and viability assessment were performed using a Countstar automatic cell counter based on the classical trypan blue staining principle, ensuring that cell viability was above 90%. Cell concentrations for GP2D, HPAC, AsPC-1, KP-4, and Panc 04.03 were adjusted to a final methylcellulose (Sigma, 9004-67-5) concentration of 0.65%, mixed, and allowed to stand until no visible air bubbles. 80 µL of cell suspension (1000-2000 cells) was added to a 96-well plate (Corning, 3603). The cells in the 96-well plate were cultured overnight at 37 °C, 5% CO2, and 95% humidity (Thermo Scientific, Model 371 Series).
# (§2) Preparation of drug for IC50 assay: 10 mM DMSO stock solutions of each compound were prepared. First dilution in DMSO to 5 mM, then 3-fold serial dilution to 9 concentrations to prepare DMSO solutions of different concentrations for each compound. Second 1:100 dilution (phosphate-buffered saline DPBS, Corning, 21-031-CVC) was used to prepare a 5x dilution of each compound, using complete medium as solvent. Finally, 20 µL of each compound dilution was added per well to the cell-seeded plates, with a final top concentration of 10 µM, 9 concentrations, 3-fold dilution, two replicate wells per drug concentration.
# (§3) The treated plates were incubated at 37 °C, 5% CO2 for 120 hours, followed by CTG analysis (CellTiter-Glo® Luminescent Cell Viability Assay, Promega, Cat# G7573). CTG reagent was thawed, and cell plates were equilibrated to room temperature for 30 minutes. 75 µL of CTG solution was added per well. Plates were shaken on an orbital shaker for 5 minutes to lyse cells, then placed at room temperature for 20 minutes to stabilize the luminescent signal. Luminescence was read (EnVision Multimode Plate Reader, PerkinElmer #2105). Data were analyzed using GraphPad Prism 9.0 software, and dose-response curves were fitted by nonlinear S-curve regression to calculate IC50 values (nM). Cell viability (%) = (Lumtest drug−Lummedium control)/(Lumvehicle control−Lummedium control) × 100% [formula]
# (§4) Following essentially the same experimental method and procedure as Activity Example 5, the inhibitory effect of representative drug P unit compounds of ADC of the present disclosure on proliferation of KRAS mutant cells was tested in cell lines H358, H727, A549, GP2D, MKN1 (purchased from Nanjing Kebai Biotechnology Co., Ltd.) and cell lines A375 and HCT116 (purchased from Cell Bank of the Chinese Academy of Sciences): […]
# A549 (G12S) = test: as above
# Description: as §1, §2, §3, §4
# GP2D (G12D) = test: as above
# Description: as §1, §2, §3, §4
# H358 (G12C) = test: as above
# Description: as §1, §2, §3, §4
# H727 (G12V) = test: as above
# Description: as §1, §2, §3, §4
# HCT116 (G13D) = test: as above
# Description: as §1, §2, §3, §4
# MKN1 (WT, amp) = test: as above
# Description: as §1, §2, §3, §4
# GP2D cells [3] = test: KRAS-G12D mutant human colon cancer GP2D subcutaneous xenograft, drug P unit compounds (Activity Example 4); conditions: 10 mg/kg, twice daily by oral gavage; for Tumor Volume (Day 21): vehicle control 1026
# Description: GP2D cells (Nanjing Kebai Biotechnology Co., Ltd.) were cultured in culture medium containing DMEM and 10% FBS, and cells in logarithmic growth phase were collected and resuspended in PBS to an appropriate concentration for subcutaneous tumor inoculation in BALB/c female nude mice (nude, purchased from Jiangsu Ji Yao Kang Biotechnology Co., Ltd.). Experimental mice were subcutaneously inoculated on the right posterior back with GP2D cells at a density of 1 × 10^7 cells per mouse, with the cells resuspended in a 1:1 PBS and Matrigel (inoculation volume: 0.1 mL). When average tumor volume reached ~150 mm^3, mice were randomized based on tumor size and body weight. Dosing began immediately after grouping; the day of dosing was considered Day 0. Compounds were administered twice daily by oral gavage at a dose of 10 mg/kg or vehicle control (0.5% Tween 80 + 99.5% (0.5% MC (400cp))). Body weight and tumor size were measured twice weekly during the experiment. [formula] [formula]
# GP2D cells [4] = test: KRAS-G12D mutant human colon cancer GP2D subcutaneous xenograft, ADC compounds (Activity Example 8); conditions: 0.15 mg/kg (payload P3 equivalent in 1), dosing D0,7,14; Day 21 (Figure 6 study)
# Description: GP2D cells (Nanjing Kebai Biotechnology Co., Ltd.) were cultured in culture medium containing DMEM and 10% FBS, and cells in logarithmic growth phase were collected and resuspended in PBS to an appropriate concentration mixed 1:1 with matrigel for subcutaneous tumor inoculation on the right posterior back of BALB/c female mice (purchased from Jiangsu Jicui Yaokang Biotechnology Co., Ltd.). Mice were inoculated subcutaneously on the right posterior back with 1×10^7 GP2D cells per mouse in 0.1 mL volume. When average tumor volume reached ~150 mm^3, mice were randomized into groups based on tumor size and body weight. The day of dosing was considered D0. Compounds were administered via tail vein injection at 20 mg/kg or 10 mg/kg. The vehicle control group received PBS. Mouse body weights and tumor volumes were measured twice weekly. [formula] [formula]
IC50 [1] [nM],IC50 (A375 (WT)) [nM],IC50 (H358 (G12C)) [nM],IC50 (H727 (G12V)) [nM],"IC50 (MKN1 (WT, amp)) [nM]",SMILES,IC50 (GP2D (G12D)) [nM],other results
,,5 to 100,< 5,,C#Cc1c(F)ccc2cc(O)cc(-c3nc4c5c(nc(OC[C@]6(C)CN(CC)CC[C@@H]6C(F)F)nc5c3F)N3CCCOC[C@H]3CO4)c12,< 5,
2,,,,,C#Cc1c(F)ccc2cc(O)cc(-c3nc(OC)c4c(N5C[C@H]6CC[C@@H](C5)N6)nc(OC[C@]5(C)CN(C)CC/C5=C\F)nc4c3F)c12,,Tumor Volume (Day 20) [2]: 113 mm^3
,,5 to 100,< 5,,C#Cc1c(F)ccc2cc(O)cc(-c3nc4c5c(nc(OC[C@]6(C)CN(CC)CC/C6=C\F)nc5c3F)N3CCCOC[C@H]3CO4)c12,< 5,
1,,,,,C#Cc1c(F)ccc2cc(O)cc(-c3nc(C#C)c4c(N5C[C@H]6CC[C@@H](C5)N6)nc(OC[C@]5(C)CN(C)CC/C5=C\F)nc4c3F)c12,,TGI (GP2D cells [3]): 70%; Tumor Volume (Day 21) (GP2D cells [3]): 419 mm^3
,> 100,5 to 100,5 to 100,5 to 100,C#Cc1c(F)ccc2cc(O)cc(-c3nc4c5c(nc(OC[C@@]67CCCN6C[C@H](F)C7)nc5c3F)N3CCCOC[C@H]3CO4)c12,< 5,IC50 (A549 (G12S)): > 100 nM; IC50 (HCT116 (G13D)): > 100 nM

# Second part, the molecule before the results:
SMILES,IC50 [1] [nM],IC50 (A375 (WT)) [nM],IC50 (H358 (G12C)) [nM],IC50 (H727 (G12V)) [nM],"IC50 (MKN1 (WT, amp)) [nM]",IC50 (GP2D (G12D)) [nM],other results
C#Cc1c(F)ccc2cc(O)cc(-c3ncc4c(N5C[C@H]6CC[C@@H](C5)N6)nc(OC[C@]5(C)CN(C)CC/C5=C\F)nc4c3F)c12,4,,,,,,Tumor Volume (Day 20) [2]: 77 mm^3
C#Cc1c(F)ccc2cc(O)cc(-c3c(F)cc4c(N5CC6CCC(C5)N6)nc(OCC5(C)CN(C)CCC5C(F)F)nc4c3F)c12 (centres unmarked),7,,,,,,Tumor Volume (Day 20) [2]: 135 mm^3
CCN1CC/C(=C\F)[C@](C)(COc2nc(N3Cc4c(COC)c(C(=O)N(C)C)nn4CC[C@@H]3C)c3cc(Cl)c(-c4c(F)ccc5sc(N)c(C#N)c45)c(F)c3n2)C1,,> 100,< 5,< 5,< 5,< 5,IC50 (A549 (G12S)): > 100 nM; IC50 (HCT116 (G13D)): > 100 nM
CCN1CC[C@H](C(F)F)[C@](C)(COc2nc3c4c(nc(-c5cc(N)cc(Cl)c5C(F)(F)F)c(F)c4n2)O[C@@H](C)[C@@H]2[C@@H]4CC[C@H](CN32)N4)C1,,> 100,,,> 100,< 5,
CCN1CC/C(=C\F)[C@](C)(COc2nc3c4c(nc(-c5cc(N)cc(Cl)c5C(F)(F)F)c(F)c4n2)OC(C)[C@@H]2[C@@H]4CC[C@H](CN32)N4)C1 (some centres unmarked),,> 100,,,> 100,< 5,
"[2H]C([2H])([2H])N1CCC(C(F)F)C(C)(C([2H])([2H])Oc2nc(N3CC4CCC(C3)N4)c3cc(C(F)(F)F)c(-c4cccc5sc(N)c(C#N)c45)c(F)c3n2)C1 (single isomer, unassigned)",,,,,,,Tumor Volume (Day 21) (GP2D cells [3]): 70 mm^3
C#Cc1c(F)ccc2cc(O)cc(-c3nc4c5c(nc(OC[C@@]67CCCN6C[C@H](F)C7)nc5c3F)N3C[C@H]5CC[C@H](N5)[C@H]3[C@H](C)O4)c12,,> 100,,,> 100,< 5,
C#Cc1c(F)ccc2cc(O)cc(-c3nc(OC)c4c(N5C[C@H]6CC[C@@H](C5)N6)nc(OC[C@]5(C)CN(C)CC[C@@H]5C(F)F)nc4c3F)c12,2,,,,,,"Tumor Volume (Day 20) [2]: 117 mm^3; TGI (%) (GP2D cells [4]): -1%; Tumor volume (mm^3, Day 21) (GP2D cells [4]): 1050 mm^3"
CCn1c(-c2cc(N3CCN(C)CC3)cnc2[C@H](C)OC)c2c3cc(ccc31)-c1csc(n1)C[C@H](NC(=O)[C@H]1C[C@@H]1C)C(=O)N1CCC[C@H](N1)C(=O)OCC(C)(C)C2,,> 100,< 5,< 5,> 100,< 5,IC50 (A549 (G12S)): > 100 nM; IC50 (HCT116 (G13D)): 5 to 100 nM
